This passage reports IC50 results from patent EP1931657B1, “NOVEL HIGH AFFINITY QUINOLINE-BASED KINASE LIGANDS” (Merck Sharp & Dohme Corp., priority 2005, dated 2007).

The target in the assay is CDK-2 (Homo sapiens, UniProt P24941). Description: CDK-2 inhibition, fluorescence polarization displacement assay. Conditions: inhibitory effectiveness toward CDK-2. Background: Fluorescence polarisation rises when a labelled molecule tumbles more slowly, as on binding a larger partner.

As to `COC(=O)C(NC(=O)c1cc(C(=O)O)c2cc(-c3cccc(C(F)(F)F)c3)ccc2n1)c1ccc(O)cc1` (centres unmarked), the IC50 (in general, the concentration at which inhibition is half-maximal) fell in the range of 1 to 40 µM. Still for that read-out and setting: in the case of `CON=C[C@H](Cc1ccc(O)cc1)NC(=O)c1cc(C(=O)O)c2cc(-c3cccc(C(F)(F)F)c3)ccc2n1` it was less than 1 µM; in that of `COC[C@H](Cc1ccc(O)cc1)NC(=O)c1cc(C(=O)O)c2cc(C#CCCO)ccc2n1`, greater than 40 µM. Consider `O=C(N[C@@H](Cc1ccc(O)cc1)c1nnn[nH]1)c1cc(C(=O)O)c2cc(-c3cccc(C(F)(F)F)c3)ccc2n1`, for which, for the setting “tested form: free acid”, the half-inhibitory concentration (IC50) is greater than 40 µM. In turn, `COC[C@H](Cc1ccc(O)cc1)NC(=O)c1cc(C(=O)O)c2cc(-c3cccc(CN4CCC(O)C4)c3)ccc2n1` (some centres unmarked) gave an IC50 greater than 40 µM.
